Results taken from patent US7947280B2 (priority 2003, dated 2011).

System: C57/B1/6 mice
Conditions: two weeks of apelin infusion compared to saline
Description: A short anesthetic (isoflurane 1% in oxygen 11/min) facilitated implantation of a 2 ml osmotic minipump under the scruff with staple closure (Alzet Osmotic pumps, Cupertino, Calif., model 1002). […] Cardiovascular parameters were recorded at 7 days and 14 days by tail cuff sphygmomanomtery (Visitech Systems, Apex, N.C.) and echocardiography (probe frequency 15 MHz, Acuson Sequoia, Siemens, Malvern, Pa.). For echocardiography, mice were anesthetized using isoflurane (0.75-1.25% in oxygen 11/min) then placed supine and warmed using a heat lamp. Using a gel buffer, parastemal long and short axis views were recorded in each animal to allow estimation of indices of contractility such as fractional shortening (LVEDD-LVESD/LVEDD), cardiac output ([Pi*(Aod)^2*VTI*HR]/4), velocity of circumferential shortening ([LVEDD−LVESD]/[ET×LVEDD]), and LV mass (1.05*[(IVSD+LVEDD+PWTD).su-p.3-LVEDD^3) where LVEDD is left ventricular end diastolic diameter, LVESD is left ventricular end systolic diameter, IVSD is inter ventricular septum in diastole, PWTD is posterior wall thickness in diastole, Aod is aortic diameter, VTI is the velocity time integral, ET is ejection time. […]
Data Analysis. Data were analyzed using Student's t statistic (paired) or the repeated measures analysis of variance using the post hoc comparison of Fisher (NCSS 2002). […]

Q: Which “post mortem organ weights (heart or ventricular weight)” value does the source give for apelin here?
A: no increase
